Values of other authors, collected in patent US11844786B2 (ADEPTIO PHARMACEUTICALS LIMITED, priority 2017, dated 2023).

Sequences of proteins named here, by UniProt entry; tags and fusion partners are left off.
UniProt Q01827, whole entry: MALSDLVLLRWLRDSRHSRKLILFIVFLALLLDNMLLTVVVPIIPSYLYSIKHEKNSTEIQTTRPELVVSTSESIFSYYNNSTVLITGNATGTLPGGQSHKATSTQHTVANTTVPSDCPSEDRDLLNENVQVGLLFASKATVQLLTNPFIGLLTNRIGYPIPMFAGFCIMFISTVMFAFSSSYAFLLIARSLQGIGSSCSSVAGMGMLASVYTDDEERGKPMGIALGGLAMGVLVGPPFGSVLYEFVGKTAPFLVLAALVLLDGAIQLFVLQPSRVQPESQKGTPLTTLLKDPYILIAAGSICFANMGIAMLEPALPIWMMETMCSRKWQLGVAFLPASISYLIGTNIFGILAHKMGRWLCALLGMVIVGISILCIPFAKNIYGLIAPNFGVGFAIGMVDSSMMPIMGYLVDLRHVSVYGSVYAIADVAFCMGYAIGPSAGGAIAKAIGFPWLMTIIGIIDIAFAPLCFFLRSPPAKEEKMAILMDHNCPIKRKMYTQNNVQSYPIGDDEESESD

Target: VMAT2 (Rattus norvegicus, UniProt Q01827)
Conditions: statement in words; cited from earlier work

COc1cc2c(cc1OC)[C@H]1C[C@@H](O)[C@H](CC(C)C)CN1CC2 [(+)-α-DHTBZ, (2R, 3R, 11bR)-3-isobutyl-9,10-dimethoxy-1,3,4,6,7,11b-hexahydro-2H-pyrido[2,1,a]isoquinolin-2-ol]
activity as a VMAT2 binding agent: most active
